In patent US8440640B2, “Methods and compositions for treating obesity and related disorders” (University of Medicine and Dentistry of New Jersey, priority 2008, dated 2013):

Experiments:
AC5 = experiment: Inhibition of recombinant AC5 (baculovirus overexpression system); type: biochemical
H9C2 cells = experiment: cAMP accumulation in H9C2 cells; type: cell-based

Nc1ncnc2c1ncn2C1CCC(C(=O)NO)C1 (single isomer, unassigned)
selectivity ratio between AC5 and AC2 (AC5): 207 | inhibition of cAMP accumulation in intact H9C2 cells (H9C2 cells): inhibited cAMP accumulation
